{"source": "patent US20240033277A1", "about": "“METHODS FOR TREATING AUTOIMMUNE DISEASES” (NEW YORK SOCIETY FOR THE RELIEF OF THE RUPTURED AND …, priority 2020, published 2024)", "key": {"TLR9-activated pDCs": {"test_system": "TLR9-activated pDCs", "assay": "IFNA gene expression (Q-PCR) in pDCs activated with TLR9 agonist CpG-C274", "assay_type": "cell-based, human"}, "pDCs": {"test_system": "pDCs", "assay": "Intracellular ATP in pDCs (ATP determination kit)", "assay_type": "cell-based, human", "conditions": "TM or TG with pyruvate 10 mM or α-KG 10 mM for 3 h, then TLR9 agonist; 2.5 h; FIGS. 3E-3H", "description": "Supernatants were removed, and cells were deproteinated in 0.5 ml of 0.5M MPA on ice for 5 min, followed by centrifugation at 10000×g for 5 min at 4° C. The deproteinated samples were neutralized with 25 μl of potassium carbonate, and then centrifugation at 10000×g for 5 min at 4° C. The supernatant was removed and deproteinated samples were used for pyruvate assay. For ATP determination, ATP determination kit (Sigma: A22066) was used in pDCs extracts as per the manufacture protocol."}}, "data": [{"molecule": "O.O=C([O-])CCC(=O)C(=O)[O-].[Na+].[Na+]", "note": "[α-KG, α-ketoglutaric acid disodium salt hydrate]", "values": [{"measurement": "IFNA expression by TLR9-activated pDCs under ER stress with metabolite supplementation", "setting": "TLR9-activated pDCs", "value": "rescued"}, {"measurement": "intracellular ATP levels under ER stress with metabolite supplementation", "setting": "pDCs", "value": "restored"}]}]}
